This note sets out measurements from PMC5397429.

The target of this test is Rabbit IgG (rabbit). Description: binding of I-125-labelled protein-coated gold nanoparticles to Sepharose affinity beads; Protein A on 15 nm gold labelled with I-125 mixed with Sepharose beads coupled to rabbit IgG or to Protein A (control); percent bound read from radioactivity and from loss of OD520 from the supernatant.

Turning to “Protein A (from UniProt P38507 37-477) (natural protein)”, the % I-125 binding was determined as 92% and the % OD520 binding stood at 82%.
